Results published in BindingDB's records for PubMed 10773045 (Wake Forest University, 2000).
pKi: −log10 of the molar value. Where “and” joins values, the source holds several entries; their conditions need not be identical. Equal values may be shown once.

Amino acid sequences for entries named in this document (tags omitted).
UniProt P23977, whole entry: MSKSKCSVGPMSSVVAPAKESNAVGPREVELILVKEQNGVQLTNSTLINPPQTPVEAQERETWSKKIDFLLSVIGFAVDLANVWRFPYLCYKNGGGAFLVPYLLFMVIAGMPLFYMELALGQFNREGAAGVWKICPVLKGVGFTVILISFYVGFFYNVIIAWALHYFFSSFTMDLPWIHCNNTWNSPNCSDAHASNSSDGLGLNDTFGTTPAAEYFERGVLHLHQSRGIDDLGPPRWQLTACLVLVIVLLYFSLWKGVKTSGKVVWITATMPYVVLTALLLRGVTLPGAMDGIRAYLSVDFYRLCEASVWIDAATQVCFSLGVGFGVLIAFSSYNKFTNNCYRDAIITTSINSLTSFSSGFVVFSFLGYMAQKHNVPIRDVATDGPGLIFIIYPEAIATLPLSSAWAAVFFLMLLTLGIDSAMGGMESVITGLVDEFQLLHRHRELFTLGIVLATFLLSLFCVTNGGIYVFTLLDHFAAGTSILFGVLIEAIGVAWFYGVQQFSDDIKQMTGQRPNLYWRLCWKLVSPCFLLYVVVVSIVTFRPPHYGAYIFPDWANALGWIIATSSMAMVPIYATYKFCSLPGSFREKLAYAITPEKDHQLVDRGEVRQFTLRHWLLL

Target: Sodium-dependent dopamine transporter (Rattus norvegicus, UniProt P23977)

pKi: 6.48 and 6.42 and 6.36
SMILES: CNCCC(Oc1ccccc1OC)c1ccccc1 (stereo unspecified) [3-(2-methoxyphenoxy)-N-methyl-3-phenylpropan-1-amine]
